{
  "source": "patent US20220125856A1",
  "about": "“USE OF OVARIAN-DERIVED HYDROGELS FOR RESTORATION OF REPRODUCTIVE FUNCTION AND HEALTH IN WOMEN” (UNIVERSITY OF PITTSBURGH - OF THE COMMONWEALTH SYSTEM OF …, priority 2019, published 2022)",
  "system": "ovarian follicles",
  "experiment": "Chemotherapy-induced POF model, follicle counts post-chemotherapy",
  "details": "busulfan compared with cyclophosphamide across dose titration",
  "data": [
    {"smiles": "CS(=O)(=O)OCCCCOS(C)(=O)=O", "note": "[busulfan]", "values": [
      {"measurement": "effect on follicle depletion", "result": "enhanced effect on follicle depletion in comparison to cyclophosphamide"}
    ]}
  ]
}
